Experimental data as given in PubChem BioAssay AID2797 (The Scripps Research Institute Molecular Screening Center, 2010).
This is a selection; strong and weak results do not stand in their true shares. Some results for these compounds are left out of this collection, so the calls shown say nothing about other tests. Activity calls are given as the source filed them.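 The calls were made as follows: active = activation above the mean activation of all tested compounds plus 3 SD, per screening run (cut at about 20% in these data); inactive = the rest.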

Chains of the proteins cited; added tags and fusions are not shown.
UniProt P37288, whole entry: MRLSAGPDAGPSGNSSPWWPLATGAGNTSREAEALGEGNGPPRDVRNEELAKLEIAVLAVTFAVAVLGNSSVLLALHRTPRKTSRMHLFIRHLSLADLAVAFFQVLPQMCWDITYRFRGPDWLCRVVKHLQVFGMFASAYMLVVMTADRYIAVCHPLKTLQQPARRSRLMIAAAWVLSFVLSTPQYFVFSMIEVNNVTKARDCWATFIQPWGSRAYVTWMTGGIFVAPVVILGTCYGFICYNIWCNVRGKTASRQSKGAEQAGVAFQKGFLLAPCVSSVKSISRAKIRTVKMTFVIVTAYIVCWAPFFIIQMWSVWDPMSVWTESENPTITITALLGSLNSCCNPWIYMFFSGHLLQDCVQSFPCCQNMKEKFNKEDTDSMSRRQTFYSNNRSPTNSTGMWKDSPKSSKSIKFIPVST

What follows are compounds tested against Vasopressin V1a receptor (Homo sapiens) (UniProt P37288) (assay: V1R activation via calcium rise – fluorescence, CHO-V1R cells, counter-screen for OXTR agonist project, primary screen (AID 2797;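 also: signal is peak over basal fluorescence ratio across a 100 second FLIPR read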)). Conditions: Fluo-8 calcium fluorescence, agonist mode, at 3 µM, stronger effect = higher value, 0% DMSO, 100% 3 nM vasopressin.

SMILES | activation
COc1ccc(Br)c(C(=O)NCC2(N3CCCCC3)CCCCC2)c1 | inactive: -0.54%
CC(C)Oc1ccc(C(=O)NCC2(N(C)C)CCCCC2)cc1 | inactive: 1.68%
CN(C)c1cccc(C(=O)NCC2(N(C)C)CCCCC2)c1 | inactive: -0.99%
O=C(OC1CN2CCC1CC2)C(CO)(c1ccccc1)c1ccccc1 (centres undefined) | inactive: 0.96%
COc1cccc(C(=O)NCC2(N3CCCCC3)CCCCC2)c1 | inactive: 0.89%
COc1ccc(Cl)cc1C(=O)NCC1(N(C)C)CCCCC1 | inactive: -0.27%
O=C(NCC1(N2CCCCC2)CCCCC1)c1cccc(Cl)c1 | inactive: 0.98%
CN(C)C1(CNC(=O)c2ccc(Br)cc2)CCCCC1 | inactive: -0.57%
COc1cc(C(=O)NCC2(N(C)C)CCCCC2)c([N+](=O)[O-])cc1OC | inactive: 0.57%
C=CCN1CCN(CCOC(=O)C(O)(c2ccccc2)c2ccccc2)CC1 | inactive: -0.17%
O=C(NCC1(N2CCCCC2)CCCCC1)c1cc(F)c(F)cc1Cl | inactive: 0.35%
COc1ccc(C(=O)NCC2(N(C)C)CCCCC2)cc1 | inactive: 2.04%
CCN1CCCC(OC(=O)C2(O)c3ccccc3C=Cc3ccccc32)C1 (centres undefined) | inactive: 0.84%
Cc1cc(C(=O)NCC2(N3CCCCC3)CCCCC2)ccc1[N+](=O)[O-] | inactive: -0.54%
O=C(NCC1(N2CCCCC2)CCCCC1)c1cccc(Br)c1 | inactive: 0.88%
Cc1ccccc1C(=O)NCC1(N2CCCCC2)CCCCC1 | inactive: -0.17%
CN(C)c1ccc(C(=O)NCC2(N(C)C)CCCCC2)cc1 | inactive: 0.32%
CN(C)C1CCCC1OC(=O)C(O)(c1ccccc1)c1ccccc1 (centres undefined) | inactive: 1.45%
CCN(CC)CC(C)C(C)OC(=O)C(O)(c1ccccc1)c1ccccc1 (centres undefined) | inactive: 1.05%
COc1cc(SC)ccc1C(=O)NCC1(N(C)C)CCCCC1 | inactive: 0.39%
CC(C)N1C(=O)CC2(CCN(CCOC(=O)C(O)(c3ccccc3)c3ccccc3)CC2)C1=O | inactive: 0.8%
Cc1ccc(C(=O)NCC2(N3CCCCC3)CCCCC2)cc1 | inactive: 0.8%
O=C(NCC1(N2CCCCC2)CCCCC1)c1cc([N+](=O)[O-])ccc1Cl | inactive: -1.12%
CN1[C@@H]2CC[C@H]1CC(OC(=O)C(O)(c1ccccc1)c1ccccc1)C2 (some centres undefined) | inactive: 0.63%
